Test results taken from PubChem BioAssay AID1346985 (Tox21, 2019).
This is a selection; strong and weak results do not stand in their true shares. Records with an inconclusive call do not appear. Activity calls are given as the source filed them. Calls come from the whole dose curve; as a rule, active = well fitted activation curve with a large enough effect in the repeat runs; inconclusive = weak or mixed curves; inactive = flat fitted curve, though single readings scatter.

The molecules below were run against Nuclear receptor subfamily 1 group I member 2 (Homo sapiens) (UniProt O75469) (assay: Human pregnane X receptor (PXR) activation by small molecules, qHTS assay). Settings: DPX-2 HepG2 CYP3A4-luciferase, 24 h; at 38.3 µM (top of the series) unless noted.
Source text: National Center for Advancing Translational Sciences [NCATS]
NIH Chemical Genomics Center [NCGC]
U.S. Environmental Protection Agency [EPA]
National Institutes of Environmental Health Sciences [NIEHS]
National Toxicology Program [NTP]
The Pregnane X receptor (PXR), a ligand activated nuclear receptor plays a critical role in the regulation of genes involved in drug metabolism and transporters. Activation of PXR may be involved in the unwanted adverse drug-drug interactions. […] Therefore, identification of compounds with the potential for PXR activation can be of importance in improving the efficacy of drugs with less toxicity and avoiding drug-drug interactions.
DPX-2 (Puracyp, Inc.) cell lines, used for screening against human PXR activation has HepG2 cells co-transfected with a PXR response element and a luciferase construct containing CYP3A4 promoter. Increase in luciferase activity can be used to identify the compounds that activate the PXR pathway.
DPX-2 cells were dispensed at 2,000 cells per well in 5uL of assay medium into white, solid-bottom 1536-well plates using a Multidrop Combi dispenser (Thermo Scientific). The assay plates were incubated at 37C for 5hr before transferring 23nL of test compounds dissolved in DMSO and positive control via Pintool station (Wako). The assay plates were incubated at 37C for 24hr. Then 5ul One-Glo assay reagent (Promega) was added to each plate by a Flying Reagent Dispenser (FRD, Aurora Discovery) and following 30 min incubation at room temperature, luciferase activity was quantified on a ViewLux plate reader (Perkin Elmer).
% is set by controls: 0 for no effect and ±100 for the full control effect.
Note: nearly all actives have a fitted effect of over 40% in size.

Structure (SMILES)	activation
C/C1=C2N=C(/C=C3N=C(/C(C)=C4\[N-][C@@](C)([C@@H]5N=C1[C@](C)(CCC(=O)NC[C@@H](C)OP(=O)([O-])O[C@H]1[C@@H](O)[C@@H](n6cnc7cc(C)c(C)cc76)O[C@@H]1CO)[C@H]5CC(N)=O)[C@@](C)(CC(N)=O)[C@@H]4CCC(N)=O)[C@@](C)(CC(N)=O)[C@@H]\3CCC(N)=O)C(C)(C)[C@@H]/2CCC(N)=O.[C-]#N.[Co+3]	inactive: -2.8% [at 17.1 µM]
CC(C)OP(=O)(F)OC(C)C	inactive: 8.59%
OCCSCCO	inactive: -9.81%
CN(C)CCS	inactive: 2.56%
O=[N+]([O-])[O-].[NH4+]	inactive: -2.89%
O=[N+]([O-])c1cccc([N+](=O)[O-])c1	inactive: 7.83%
O=[N+]([O-])OCC(CO[N+](=O)[O-])(CO[N+](=O)[O-])CO[N+](=O)[O-]	inactive: 6.96%
